This experiment addresses Tyrosyl-DNA phosphodiesterase 1 (Homo sapiens) (UniProt Q9NUW8). Description: Confirmation Assay for Inhibitors of Tyrosyl-DNA Phosphodiesterase (TDP1). Note: nearly all actives have a fitted effect of over 40% in size. The conditions noted are these: recombinant human TDP1 enzymatic activity, dose-response. From the text:
Human tyrosyl-DNA phosphodiesterase I (Tdp1) is a rational anticancer target because this enzyme is involved in the repair of DNA lesions created by the trapping of human DNA topoisomerase I (Top1) following treatment by anticancer agents such as camptothecins. Recombinant Tdp1 was expressed and purified from E. coli in the laboratory (Anthony et al, Nucleic Acids Research, 2007, Vol. 35, 4474-4484). A Tdp1 DNA substrate bearing a 5' biotin and a 3' phospho-tyrosine was obtained by custom synthesis. This oligonucleotidic DNA substrate was subsequently coupled to a fluorescein isothiocyanate (FITC) group via the free amino group present on the phospho-tyrosine. Tdp1 was screened against the NCGC small molecule library using the AlphaScreen (AS) detection method in which a streptavidin donor AS bead is bound at the 5' end and an anti-FITC AS acceptor bead is bound at the 3' end of the DNA oligonucleotidic substrate. In the presence of Tdp1, the enzyme cleaves the tyrosine-FITC group, leaving a 3' end phosphate on the DNA substrate. This cleavage reaction results in a loss of signal in AS.
This BioAssay is a confirmation of followup compounds from primary TDP1 screen (AID:485290)
NIH Molecular Libraries Probe Production Network [MLPCN] […]
3 ul of Tdp1 enzyme is dispensed to 1536-well Kalypsys black solid bottom plates. […] The detection is then performed on a PerkinElmer Envision reader.

Amino acid sequences for entries named in this document (tags omitted).
UniProt Q9NUW8, whole entry: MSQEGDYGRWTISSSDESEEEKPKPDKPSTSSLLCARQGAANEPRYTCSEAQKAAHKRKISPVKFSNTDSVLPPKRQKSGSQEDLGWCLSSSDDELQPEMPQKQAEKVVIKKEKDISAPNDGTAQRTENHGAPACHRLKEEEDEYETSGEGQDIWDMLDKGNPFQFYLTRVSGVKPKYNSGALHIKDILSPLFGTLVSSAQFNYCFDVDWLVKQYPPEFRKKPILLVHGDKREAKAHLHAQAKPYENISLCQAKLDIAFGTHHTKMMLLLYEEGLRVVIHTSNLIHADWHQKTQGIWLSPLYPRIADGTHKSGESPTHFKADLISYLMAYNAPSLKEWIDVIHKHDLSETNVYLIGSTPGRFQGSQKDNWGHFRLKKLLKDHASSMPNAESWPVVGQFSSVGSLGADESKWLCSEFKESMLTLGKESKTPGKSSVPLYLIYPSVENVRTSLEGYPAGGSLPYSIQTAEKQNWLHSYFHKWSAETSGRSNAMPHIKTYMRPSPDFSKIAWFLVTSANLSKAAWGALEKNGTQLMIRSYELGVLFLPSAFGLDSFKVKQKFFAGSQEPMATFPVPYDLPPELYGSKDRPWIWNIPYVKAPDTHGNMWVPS

Molecules are shown by their SMILES. This is a selection; strong and weak results do not stand in their true shares. Inconclusive results are not listed. Active and inactive are the calls of the source. Calls come from the whole dose curve; as a rule, active = well fitted inhibition curve with a large enough effect; inconclusive = small, poorly fitted or top-dose-only effect; inactive = flat fitted curve, though single readings scatter.
Potency is the fitted concentration of half-maximal effect.

On to `[C-]#N.[C-]#N.[C-]#N.[C-]#N.[C-]#N.[C-]#N.[Fe+6].[Fe]`, for which the Potency was active: 2.51 µM.

For `N#[O+].[C-]#N.[C-]#N.[C-]#N.[C-]#N.[C-]#N.[Fe+2].[Na+].[Na+]`, the Potency was active: 11.2 µM.

The values are drawn from PubChem BioAssay AID489007 (National Center for Advancing Translational Sciences (NCATS), 2010).
